Literature values as cited in paper PMC7854685, “Histone Parylation factor 1 contributes to the inhibition of PARP1 by cancer drugs” (Nature Communications, 2021).

Chains of the proteins cited; added tags and fusions are not shown.
UniProt P09874, whole entry: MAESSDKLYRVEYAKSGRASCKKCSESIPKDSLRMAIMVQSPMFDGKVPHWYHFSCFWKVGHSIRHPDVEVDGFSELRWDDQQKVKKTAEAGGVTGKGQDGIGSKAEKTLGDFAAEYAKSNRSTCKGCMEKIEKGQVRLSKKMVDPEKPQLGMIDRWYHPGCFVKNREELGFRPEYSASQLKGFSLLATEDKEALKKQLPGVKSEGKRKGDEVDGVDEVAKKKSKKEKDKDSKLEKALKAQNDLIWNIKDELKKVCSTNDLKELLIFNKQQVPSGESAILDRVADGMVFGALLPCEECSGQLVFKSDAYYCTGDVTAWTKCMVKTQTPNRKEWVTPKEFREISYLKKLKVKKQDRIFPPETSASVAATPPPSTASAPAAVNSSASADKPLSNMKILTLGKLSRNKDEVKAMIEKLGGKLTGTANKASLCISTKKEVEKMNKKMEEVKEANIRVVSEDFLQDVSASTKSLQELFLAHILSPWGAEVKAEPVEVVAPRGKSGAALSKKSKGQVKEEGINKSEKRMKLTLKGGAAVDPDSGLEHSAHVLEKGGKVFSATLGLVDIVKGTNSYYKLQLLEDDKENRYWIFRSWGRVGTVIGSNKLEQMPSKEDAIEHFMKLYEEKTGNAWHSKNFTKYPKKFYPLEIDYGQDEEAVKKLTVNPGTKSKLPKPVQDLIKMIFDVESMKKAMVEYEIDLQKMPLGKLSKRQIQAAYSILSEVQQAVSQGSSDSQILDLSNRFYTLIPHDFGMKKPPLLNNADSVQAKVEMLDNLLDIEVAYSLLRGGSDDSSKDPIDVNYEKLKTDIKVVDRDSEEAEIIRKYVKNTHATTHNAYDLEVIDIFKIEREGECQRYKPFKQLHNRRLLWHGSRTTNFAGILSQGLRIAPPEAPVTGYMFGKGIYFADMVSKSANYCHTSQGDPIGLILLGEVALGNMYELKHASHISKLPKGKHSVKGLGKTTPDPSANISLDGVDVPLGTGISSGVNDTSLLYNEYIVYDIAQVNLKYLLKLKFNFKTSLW

Molecular target: PARP1 (Homo sapiens, UniProt P09874)
Conditions: cited from earlier work

Compound: Cn1ncnc1[C@H]1c2n[nH]c(=O)c3cc(F)cc(c23)N[C@@H]1c1ccc(F)cc1 [Talazoparib]
- PARP-trapping: strong
